Values quoted from earlier work, collected in paper PMC12120261, “Responsiveness of different MET tumour alterations to type I and type II MET inhibitors” (Clinical and Translational Medicine, 2025).

Test system: MET G1163R
Design: method as in PMID 31279006

## CN1CCC(COc2cnc(-c3cccc(Cn4nc(-c5cccc(C#N)c5)ccc4=O)c3)nc2)CC1 [tepotinib]
  sensitivity of the solvent front G1163R mutation: remains sensitive
